# Test results: patent US20100330033A1, “Protein-carrier conjugates” (priority 2009, published 2010)
# Like-named read-outs stand apart in the source and are kept apart here.
# Conditions: for Stability of εN-mPEG10000-αN-Laurate-Lysine-Phenylalanine (%), calculated from αN-Laurate-Lysine-Phenylalanine released: 0.5 mM
substance,measurement,setting,value
εN-mPEG-αN-Laurate-Lysine-Phenylalanine,Rate (%/day),"Buffer pH 5, 37° C.",2.51 %/day
same,Concentration of Lauric acid in the Stability Sample,"Buffer pH 5, Initial, 37° C.",0.50%
same,Concentration of Phenylalanine in the Stability Sample,"Buffer pH 5, Initial, 37° C.",0.50%
same,"Stability of εN-mPEG10000-αN-Laurate-Lysine-Phenylalanine (%), calculated from αN-Laurate-Lysine-Phenylalanine released","Buffer pH 5, Initial, 37° C.",100%
same,Concentration of Lauric acid in the Stability Sample,"Buffer pH 5, Week 1, 37° C.",0.47%
same,Concentration of Phenylalanine in the Stability Sample,"Buffer pH 5, Week 1, 37° C.",0.50%
same,"Stability of εN-mPEG10000-αN-Laurate-Lysine-Phenylalanine (%), calculated from αN-Laurate-Lysine-Phenylalanine released","Buffer pH 5, Week 1, 37° C.",98.8%
same,Concentration of Lauric acid in the Stability Sample,"Buffer pH 5, Week 2, 37° C.",0.53%
same,Concentration of Phenylalanine in the Stability Sample,"Buffer pH 5, Week 2, 37° C.",0.51%
same,"Stability of εN-mPEG10000-αN-Laurate-Lysine-Phenylalanine (%), calculated from αN-Laurate-Lysine-Phenylalanine released","Buffer pH 5, Week 2, 37° C.",79.9%
same,Concentration of Lauric acid in the Stability Sample,"Buffer pH 5, Week 3, 37° C.",0.55%
same,Concentration of Phenylalanine in the Stability Sample,"Buffer pH 5, Week 3, 37° C.",0.54%
same,"Stability of εN-mPEG10000-αN-Laurate-Lysine-Phenylalanine (%), calculated from αN-Laurate-Lysine-Phenylalanine released","Buffer pH 5, Week 3, 37° C.",14.2%
same,Rate (%/day),"Buffer pH 7, 37° C.",2.18 %/day
same,Concentration of Lauric acid in the Stability Sample,"Buffer pH 7, Initial, 37° C.",0.50%
same,Concentration of Phenylalanine in the Stability Sample,"Buffer pH 7, Initial, 37° C.",0.50%
same,"Stability of εN-mPEG10000-αN-Laurate-Lysine-Phenylalanine (%), calculated from αN-Laurate-Lysine-Phenylalanine released","Buffer pH 7, Initial, 37° C.",100%
same,Concentration of Lauric acid in the Stability Sample,"Buffer pH 7, Week 1, 37° C.",0.46%
same,Concentration of Phenylalanine in the Stability Sample,"Buffer pH 7, Week 1, 37° C.",0.50%
same,"Stability of εN-mPEG10000-αN-Laurate-Lysine-Phenylalanine (%), calculated from αN-Laurate-Lysine-Phenylalanine released","Buffer pH 7, Week 1, 37° C.",72.2%
same,Concentration of Lauric acid in the Stability Sample,"Buffer pH 7, Week 2, 37° C.",0.52%
same,Concentration of Phenylalanine in the Stability Sample,"Buffer pH 7, Week 2, 37° C.",0.53%
same,"Stability of εN-mPEG10000-αN-Laurate-Lysine-Phenylalanine (%), calculated from αN-Laurate-Lysine-Phenylalanine released","Buffer pH 7, Week 2, 37° C.",40.5%
same,Concentration of Lauric acid in the Stability Sample,"Buffer pH 7, Week 3, 37° C.",0.54%
same,Concentration of Phenylalanine in the Stability Sample,"Buffer pH 7, Week 3, 37° C.",0.60%
same,"Stability of εN-mPEG10000-αN-Laurate-Lysine-Phenylalanine (%), calculated from αN-Laurate-Lysine-Phenylalanine released","Buffer pH 7, Week 3, 37° C.",4.7%
same,Rate (%/day),"Buffer pH 8, 37° C.",2.84 %/day
same,Concentration of Lauric acid in the Stability Sample,"Buffer pH 8, Initial, 37° C.",0.50%
same,Concentration of Phenylalanine in the Stability Sample,"Buffer pH 8, Initial, 37° C.",0.50%
same,"Stability of εN-mPEG10000-αN-Laurate-Lysine-Phenylalanine (%), calculated from αN-Laurate-Lysine-Phenylalanine released","Buffer pH 8, Initial, 37° C.",100%
same,Concentration of Lauric acid in the Stability Sample,"Buffer pH 8, Week 1, 37° C.",0.44%
same,Concentration of Phenylalanine in the Stability Sample,"Buffer pH 8, Week 1, 37° C.",0.50%
same,"Stability of εN-mPEG10000-αN-Laurate-Lysine-Phenylalanine (%), calculated from αN-Laurate-Lysine-Phenylalanine released","Buffer pH 8, Week 1, 37° C.",63.9%
same,Concentration of Lauric acid in the Stability Sample,"Buffer pH 8, Week 2, 37° C.",0.53%
same,Concentration of Phenylalanine in the Stability Sample,"Buffer pH 8, Week 2, 37° C.",0.48%
same,"Stability of εN-mPEG10000-αN-Laurate-Lysine-Phenylalanine (%), calculated from αN-Laurate-Lysine-Phenylalanine released","Buffer pH 8, Week 2, 37° C.",40.5%
same,Concentration of Lauric acid in the Stability Sample,"Buffer pH 8, Week 3, 37° C.",0.59%
same,Concentration of Phenylalanine in the Stability Sample,"Buffer pH 8, Week 3, 37° C.",0.58%
same,"Stability of εN-mPEG10000-αN-Laurate-Lysine-Phenylalanine (%), calculated from αN-Laurate-Lysine-Phenylalanine released","Buffer pH 8, Week 3, 37° C.",26.5%
same,"specific hydrolysis rate, based on the releasing rate of αN-Laurate-Lysine-Phenylalanine","across the pH range from 5.0 to 8.0, 37° C.",less than 3 % per day
same,stability of both carbamide bonds (laurate-lysine and lysine-phenylalanine) under the stress conditions,"up to 3 weeks, pH range 5.0 to 8.0, 37° C.",very stable
